Data published in patent publication US20160052955A1, “[…] INHIBITORS FOR TREATING CANCERS” (SLOAN-KETTERING INSTITUTE FOR CANCER RESEARCH, priority 2013, published 2016).

By UniProt entry, the sequences of proteins in these tests, tags left out. Residues count along the entry.
UniProt Q99873, 10-352 isoform Q99873-3: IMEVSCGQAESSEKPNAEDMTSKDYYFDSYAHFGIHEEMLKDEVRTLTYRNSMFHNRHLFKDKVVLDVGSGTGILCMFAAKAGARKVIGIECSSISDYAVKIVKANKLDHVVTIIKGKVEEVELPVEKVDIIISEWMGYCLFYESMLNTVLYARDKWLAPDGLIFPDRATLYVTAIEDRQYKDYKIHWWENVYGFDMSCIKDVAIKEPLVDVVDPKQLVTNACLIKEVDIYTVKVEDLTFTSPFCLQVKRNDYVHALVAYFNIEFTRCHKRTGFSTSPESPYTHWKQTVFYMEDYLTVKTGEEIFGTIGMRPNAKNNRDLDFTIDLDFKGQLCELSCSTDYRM

Target: T1, PRMT1 (10-352) (Homo sapiens, UniProt Q99873)
T1 construct: PRMT1 (10-352)
Assay: Filter-paper methyltransferase assay, PRMT1
Type: biochemical

Nc1ncnc2c1ncn2[C@@H]1O[C@H](C[C@@H](N)CC[C@H](N)C(=O)O)[C@@H](O)[C@H]1O [Sinefungin, sinefungin, reference compound]
pIC50: 5.99

pIC50: −log10 of the molar value.
